According to patent US20170274068A1, “IMMUNOLOGICAL REAGENT” (priority 2014, published 2017):

Tested on: B16.mOVA cells
Assay: Vaccine-mediated protection against melanoma tumor challenge
Settings: 25 μg OVA s.c., challenge with 10^4 B16.mOVA cells 7 days later

Substance: OVA: protein antigen OVA used as model antigen, alone
- time by which all mice succumbed to disease as a result of tumour formation: ≤ 25 days
